Experimental data from patent US4985595A, “Aminobenzamide derivatives” (Daiichi Pharmaceutical Co., Ltd., priority 1984, dated 1991).

Assay: in vivo
Conditions: mouse, po, mice, orally administered, read-out: acute toxicity (LD50)

CNC(=O)c1cccc(NCC(=O)NCCc2ccc(OC)c(OC)c2)c1 [Compound a]
LD50: > 2000 mg/kg
